From patent US7279179B2, “Liposome-entrapped topoisomerase inhibitors” (ALZA Corporation, priority 1988, dated 2007)

System: human colon cancer cell line HT-29 xenograft tumors
Details: mouse, in vivo

## CC[C@@]1(O)C(=O)OCc2c1cc1n(c2=O)Cc2c-1nc1cc3c(cc1c2CN1CCN(C)CC1)OCCO3 [free MPE-camptothecin, 7-(4-methyl-piperazino-methylene)-10,11-ethylenedioxy-20(S)-camptothecin]
  Partial Remission (tumor volume less than 50% of peak tumor volume): 1 and 1/10

Where “and” joins values, the source holds several entries; their conditions need not be identical. Identical values can stand only once.
